Values quoted from earlier work, collected in paper PMC3776131 (Bioorganic & medicinal chemistry letters, 2013).

Chains of the proteins cited; added tags and fusions are not shown. Lines headed by an entry give the natural chain unless they say otherwise; changes in a name come on top.
UniProt P41144: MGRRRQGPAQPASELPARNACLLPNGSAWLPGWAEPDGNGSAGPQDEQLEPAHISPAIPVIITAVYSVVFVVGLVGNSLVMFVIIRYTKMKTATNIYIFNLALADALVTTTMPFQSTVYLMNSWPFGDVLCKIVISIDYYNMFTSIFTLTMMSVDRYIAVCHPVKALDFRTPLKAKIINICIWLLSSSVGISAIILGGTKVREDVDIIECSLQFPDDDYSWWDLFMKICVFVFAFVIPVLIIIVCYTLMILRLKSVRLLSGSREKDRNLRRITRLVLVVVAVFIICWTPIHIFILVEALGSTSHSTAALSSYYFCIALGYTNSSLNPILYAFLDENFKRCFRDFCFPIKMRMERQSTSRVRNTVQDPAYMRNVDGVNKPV
UniProt P33533, whole entry: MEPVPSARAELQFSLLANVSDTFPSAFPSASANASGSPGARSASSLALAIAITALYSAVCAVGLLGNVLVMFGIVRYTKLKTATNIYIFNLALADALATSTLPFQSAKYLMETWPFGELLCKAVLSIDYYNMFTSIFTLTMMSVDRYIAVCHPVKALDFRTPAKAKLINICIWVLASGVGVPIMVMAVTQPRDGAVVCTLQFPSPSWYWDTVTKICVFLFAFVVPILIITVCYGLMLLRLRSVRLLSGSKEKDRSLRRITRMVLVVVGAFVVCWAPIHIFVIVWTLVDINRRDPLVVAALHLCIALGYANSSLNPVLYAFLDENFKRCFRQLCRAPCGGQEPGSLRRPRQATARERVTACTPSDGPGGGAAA
UniProt P33535, whole entry: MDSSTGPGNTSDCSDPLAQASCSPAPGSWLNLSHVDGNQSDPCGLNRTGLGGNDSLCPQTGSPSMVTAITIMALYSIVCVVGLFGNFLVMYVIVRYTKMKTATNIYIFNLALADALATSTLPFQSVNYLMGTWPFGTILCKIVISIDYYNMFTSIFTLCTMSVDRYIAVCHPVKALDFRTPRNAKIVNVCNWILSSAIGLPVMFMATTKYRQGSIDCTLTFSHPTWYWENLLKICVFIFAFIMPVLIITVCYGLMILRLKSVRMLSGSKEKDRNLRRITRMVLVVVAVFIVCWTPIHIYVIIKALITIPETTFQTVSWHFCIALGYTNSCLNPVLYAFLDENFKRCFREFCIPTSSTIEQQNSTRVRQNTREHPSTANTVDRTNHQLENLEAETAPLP

Columns and labels:
κ opioid receptor = κ opioid receptor (Cavia porcellus, UniProt P41144); conditions: read-out: Ki^κ; [3H]U69,593, guinea pig brain membranes; cited from earlier work
δ opioid receptors = δ opioid receptors (Rattus norvegicus, UniProt P33533); conditions: read-out: Ki^δ; [3H]DSLET, rat brain membranes; cited from earlier work
μ opioid receptors = μ opioid receptors (Rattus norvegicus, UniProt P33535); conditions: read-out: Ki^μ; [3H]DAMGO, rat brain membranes; cited from earlier work

## H-Dmt-Tic-Phe-Phe-NH2 [Compound 4a]
κ opioid receptor
  Ki: > 1 µM

## H-Dmt-Tic-Phe-Phe-OH [Compound 2a]
δ opioid receptors
  Ki: 0.000248 ± 2.5e-05 µM
κ opioid receptor
  Ki: > 1 µM

## H-Dmt-Ticψ[CH2NH]Phe-Phe-NH2 [Compound 5a]
κ opioid receptor
  Ki: > 1 µM

## H-Tyr-Tic-Phe-Phe-OH [Compound 1a]
μ opioid receptors
  Ki: 1.72 ± 0.05 µM
κ opioid receptor
  Ki: > 1 µM

## H-Tyr-Ticψ[CH2NH]Phe-Phe-OH [Compound 3a]
κ opioid receptor
  Ki: > 1 µM
